Screening results: PubChem BioAssay, Broad Institute
Only some compounds are listed: those with a hit (about 1% of all), similar ones and a draw of the others.
C2C12 statin = suppression of simvastatin myotoxicity. C2C12 myotubes + simvastatin, ATP luminescence, 48 h; scaled: DMSO 0, geranylgeraniol control 100. rescue of ATP level, % at 7.49 µM. actives 0.78% (n = 330,000). AID 602340;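 active means mean ATP rescue above about 67%, or every replicate alone reaching that limit, limit read from the data, passing the limit was not always enough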;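 further: myotubes were challenged with 10 µM simvastatin during compound exposure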
Rtt109 Vps75 = C. albicans Rtt109 histone acetyltransferase inhibition. inhibition, % at 34.9 µM. AID 540336. actives 0.16% (n = 330,000). purified Rtt109/Vps75, ThioGlo CoA-SH fluorescence, 4 h;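 active means inhibition of at least 50% in every replicate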
CDK5 p35 inh = blocks human CDK5/p35 kinase activity | Q00535+Q15078 | Recombinant CDK5/p35, ADP-Glo luminescence, 60 min | inhibition, % at 10 µM | actives 0.01% (n = 330,000) | AID 488839;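 active means highest replicate inhibition of at least 50% and at least 75% of replicates reaching 50%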;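 further: plate controls were DMSO neutral control for no effect and GW8510 at 10 µM for full effect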
Yeast UUG start = alters start codon recognition fidelity in yeast. S. cerevisiae UUG-firefly luciferase reporter, luminescence/redox ratio. AID 602363. activity score, % at 18.7 µM. hit rate 0.13% among 350,000;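 active = replicate mean at a twofold rise or more, about +100% in these data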;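 note: firefly luciferase made from a UUG start codon reports start codon fidelity; reporter light over untreated wells divided by growth signal over untreated wells; some hits fall short of that in this replicate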
Cneo AK release = causes C. neoformans cell lysis; adenylate kinase release luminescence, 4 h; normalised: neutral wells 0, clomiphene wells 100; actives 0.2% (n = 360,000); lysis activity, % at 15 µM;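 active means mean lysis activity across replicates of at least 80%, whatever share of replicates individually reach that level; inactive means mean lysis activity below 80%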
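Material – log-phase Cryptococcus neoformans yeast cells · Input – 5 × 10^6 yeast cells/mL · Medium – fresh YPD growth medium · Doses – single compound concentration per well · Timing – static 4 h at 37 °C with compound, 1 h detection · Detection – adenylate kinase release luminescence · Read-out – signal increase indicating cell lysis · Control set – Clomiphene as positive lysis control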
* marks the source's active call; other numbers are inactive results; . = no result given.

# | mol | C2C12 statin | Rtt109 Vps75 | CDK5 p35 inh | Yeast UUG start | Cneo AK release
1 | CNC(=O)C[C@H]1CC[C@H]2[C@@H](COc3ccc(NC(=O)c4cc(C)on4)cc3C(=O)N2C)O1 | 13 | . | . | -13 | 3
2 | CCN(CC)C(=O)c1ccc(NS(=O)(=O)c2ccccc2)cc1 | 103* | -11 | -1 | 2 | -1
3 | CCCNC(=O)c1ccc(N2CCC3(CC2)CC(c2cccc(Br)c2)=NO3)c(NC(=O)c2cccc(OC)c2)c1 | 142* | 5 | 0 | -10 | -1
4 | CCCNC(=O)c1ccc(N2CCC3(CC2)CC(c2cccc(Br)c2)=NO3)c(NC(=O)c2ccccc2)c1 | . | 7 | -4 | -16 | -1
5 | O=C(CC12CC3CC(CC(C3)C1)C2)N1CCOCC1 | 115* | 2 | -1 | -17 | 1
6 | O=C(CC12CC3CC(CC(C3)C1)C2)N1CCCOC1 | . | . | 0 | -7 | 0
7 | O=C(Nc1ccccc1Cl)NC1(C(=O)NCc2ccncc2)CCCCC1 | 0 | 9 | 5 | -17 | 0
8 | O=C(NCc1ccncc1)Nc1ccccc1Cl | 116* | 0 | 0 | -1 | 20
9 | O=[N+]([O-])c1ccccc1/C=C/c1ccncc1 | . | . | . | -2 | 17
10 | Cc1ccc(-c2nc(CS(=O)CC(=O)NC3CCCCC3)c(C)o2)cc1 (configuration not stated) | 105* | -13 | 0 | -13 | 1

Remaining list, next part:
# | mol | C2C12 statin | Rtt109 Vps75 | CDK5 p35 inh | Yeast UUG start | Cneo AK release
11 | Cc1oc(-c2ccc(Cl)cc2)nc1CS(=O)CC(=O)NC1CCCC1 (configuration not stated) | 99* | -5 | 0 | -18 | 0
12 | COCC#Cc1ccc2c(c1)O[C@H](CN(C)Cc1cccnc1)[C@H](C)CN([C@@H](C)CO)S2(=O)=O | 1 | . | . | -2 | 0
13 | CCN(CC)C(=O)c1sc(N)c(C(=O)OC(C)C)c1C | 1 | 6 | 1 | 10 | -2
14 | CCN(CC)C(=O)c1sc(NC(=O)C(Sc2ccccc2)c2ccccc2)c(C(=O)OC(C)C)c1C (configuration not stated) | 101* | -9 | -2 | -1 | -2
15 | Cc1cc(NC(=O)CCCn2nc([N+](=O)[O-])c(Cl)c2C)no1 | 4 | 52* | 0 | . | .
16 | CNC[C@H]1Oc2ccc(NC(=O)C3CC3)cc2C(=O)N([C@@H](C)CO)C[C@H]1C | -2 | . | . | -31 | 1
17 | CCOc1ccc(N2C(=O)CSC2c2ccncc2)cc1 (configuration not stated) | 7 | 63* | 0 | -13 | -1
18 | O=C1N(c2ccccc2)C[C@@H]2C[C@@H](c3cc4ccccc4o3)N3CCC[C@@]123 | . | 1 | 6 | . | .
19 | Cc1ccc(-c2ccccc2[C@@H]2C[C@H]3CN(C)C(=O)[C@]34CCCN24)o1 | 103* | 4 | 1 | -26 | 1
20 | Cc1noc(C)c1NC(=O)N(C)C[C@H]1Oc2ccc(NC(=O)Nc3ccc4c(c3)OCO4)cc2CC(=O)N([C@@H](C)CO)C[C@H]1C | 17 | . | . | -7 | 3

Going on with the list.
# | mol | C2C12 statin | Rtt109 Vps75 | CDK5 p35 inh | Yeast UUG start | Cneo AK release
21 | Cc1ccccc1C(=O)NC(NC(=S)Nc1ccc(S(N)(=O)=O)cc1)C(Cl)(Cl)Cl (configuration not stated) | 7 | 58* | . | -5 | 3
22 | C[C@H]1CN([C@@H](C)CO)C(=O)Cc2cc(NC(=O)Nc3ccccc3)ccc2O[C@H]1CN(C)C(=O)Nc1ccc(C(F)(F)F)cc1 | 5 | . | . | -1 | -1
23 | Cn1c(NCc2ccccc2)nc2c1c(=O)n(Cc1ccc(Br)cc1)c(=O)n2C | 23 | -1 | 1 | -6 | -4
24 | COc1ccc(CNc2nc3c(c(=O)n(Cc4ccc(Br)cc4)c(=O)n3C)n2C)cc1 | 98* | -7 | -1 | 0 | -12
25 | COc1ccc(S(=O)(=O)Nc2ccc3c(c2)C(=O)N([C@@H](C)CO)C[C@H](C)[C@@H](CN(C)S(=O)(=O)c2cccs2)OCCCC[C@@H](C)O3)cc1 | 79* | . | . | -2 | -1
26 | COc1ccc(S(=O)(=O)Nc2ccc3c(c2)C(=O)N([C@H](C)CO)C[C@@H](C)[C@H](CN(C)S(=O)(=O)c2cccs2)OCCCC[C@H](C)O3)cc1 | 102* | . | . | 18 | -1
27 | COc1ccc(S(=O)(=O)Nc2ccc3c(c2)C(=O)N([C@H](C)CO)C[C@@H](C)[C@H](CN(C)S(=O)(=O)c2cccs2)OCCCC[C@@H](C)O3)cc1 | -7 | . | . | 16 | 0
28 | Cc1noc(C)c1S(=O)(=O)Nc1ccc2c(c1)C(=O)N([C@H](C)CO)C[C@@H](C)[C@@H](CN(C)S(=O)(=O)c1ccc(Cl)cc1)OCCCC[C@H](C)O2 | 101* | . | . | -4 | 1
29 | Cc1noc(C)c1S(=O)(=O)Nc1ccc2c(c1)C(=O)N([C@H](C)CO)C[C@H](C)[C@@H](CN(C)S(=O)(=O)c1ccc(Cl)cc1)OCCCC[C@H](C)O2 | 23 | . | . | -10 | -2
30 | COc1ccc(S(=O)(=O)Nc2ccc3c(c2)C(=O)N([C@H](C)CO)C[C@H](C)[C@@H](CN(C)S(=O)(=O)c2cccs2)OCCCC[C@@H](C)O3)cc1 | -57 | . | . | 13 | -1

Random excerpt: 5 compounds from above.
# | mol | C2C12 statin | Rtt109 Vps75 | CDK5 p35 inh | Yeast UUG start | Cneo AK release
29 | Cc1noc(C)c1S(=O)(=O)Nc1ccc2c(c1)C(=O)N([C@H](C)CO)C[C@H](C)[C@@H](CN(C)S(=O)(=O)c1ccc(Cl)cc1)OCCCC[C@H](C)O2 | 23 | . | . | -10 | -2
21 | Cc1ccccc1C(=O)NC(NC(=S)Nc1ccc(S(N)(=O)=O)cc1)C(Cl)(Cl)Cl (configuration not stated) | 7 | 58* | . | -5 | 3
24 | COc1ccc(CNc2nc3c(c(=O)n(Cc4ccc(Br)cc4)c(=O)n3C)n2C)cc1 | 98* | -7 | -1 | 0 | -12
30 | COc1ccc(S(=O)(=O)Nc2ccc3c(c2)C(=O)N([C@H](C)CO)C[C@H](C)[C@@H](CN(C)S(=O)(=O)c2cccs2)OCCCC[C@@H](C)O3)cc1 | -57 | . | . | 13 | -1
27 | COc1ccc(S(=O)(=O)Nc2ccc3c(c2)C(=O)N([C@H](C)CO)C[C@@H](C)[C@H](CN(C)S(=O)(=O)c2cccs2)OCCCC[C@@H](C)O3)cc1 | -7 | . | . | 16 | 0

Following part.
# | mol | C2C12 statin | Rtt109 Vps75 | CDK5 p35 inh | Yeast UUG start | Cneo AK release
31 | COc1ccc(S(=O)(=O)Nc2ccc3c(c2)C(=O)N([C@H](C)CO)C[C@H](C)[C@@H](CN(C)S(=O)(=O)c2cccs2)OCCCC[C@H](C)O3)cc1 | -77 | . | . | 6 | 49
32 | COc1ccc(S(=O)(=O)Nc2ccc3c(c2)C(=O)N([C@H](C)CO)C[C@H](C)[C@H](CN(C)S(=O)(=O)c2cccs2)OCCCC[C@H](C)O3)cc1 | 97* | . | . | -3 | -1
33 | C[C@H]1CN([C@@H](C)CO)C(=O)Cc2cc(NC(=O)C3CC3)ccc2O[C@H]1CN(C)S(=O)(=O)c1cccs1 | -2 | . | . | -13 | -4
34 | C[C@@H]1CCCCO[C@H](CN(C)S(=O)(=O)c2ccc(Cl)cc2)[C@H](C)CN([C@H](C)CO)C(=O)c2cc(NS(=O)(=O)c3cccs3)ccc2O1 | . | . | . | 9 | 75
35 | C[C@H]1CCCCO[C@H](CN(C)S(=O)(=O)c2ccc(Cl)cc2)[C@@H](C)CN([C@@H](C)CO)C(=O)c2cc(NS(=O)(=O)c3cccs3)ccc2O1 | . | . | . | 5 | 89*
36 | COCC#Cc1cnc2c(c1)C(=O)N([C@@H](C)CO)C[C@@H](C)[C@@H](CN(C)C(=O)C1CC1)O2 | 13 | . | . | 23 | 87*
37 | C/C=C/c1cnc2c(c1)C(=O)N([C@H](C)CO)C[C@@H](C)[C@@H](CN(C)C(=O)C1CCCCC1)O2 | 24 | . | . | 2 | 95*
38 | COCC#Cc1cnc2c(c1)C(=O)N([C@@H](C)CO)C[C@@H](C)[C@H](CN(C)C(=O)C1CC1)O2 | 17 | . | . | 12 | 18
39 | COCC(=O)N(C)C[C@H]1Oc2ncc(-c3ccccc3F)cc2C(=O)N([C@@H](C)CO)C[C@H]1C | -9 | . | . | 13 | 87*
40 | COCC#Cc1cnc2c(c1)C(=O)N([C@H](C)CO)C[C@H](C)[C@H](CN(C)C(=O)C1CC1)O2 | 4 | . | . | 20 | 101*
41 | COCC(=O)N(C)C[C@H]1Oc2ncc(-c3ccccc3F)cc2C(=O)N([C@H](C)CO)C[C@H]1C | 4 | . | . | 9 | 22
